From ChEMBL document CHEMBL4028852, “Design of a Chemical Probe for the Bromodomain and Plant Homeodomain Finger-Containing (BRPF) Family of Proteins” (J Med Chem, 2017)

Sequences of proteins named here, by UniProt entry; tags and fusion partners are left off.
UniProt Q9H8M2, whole entry: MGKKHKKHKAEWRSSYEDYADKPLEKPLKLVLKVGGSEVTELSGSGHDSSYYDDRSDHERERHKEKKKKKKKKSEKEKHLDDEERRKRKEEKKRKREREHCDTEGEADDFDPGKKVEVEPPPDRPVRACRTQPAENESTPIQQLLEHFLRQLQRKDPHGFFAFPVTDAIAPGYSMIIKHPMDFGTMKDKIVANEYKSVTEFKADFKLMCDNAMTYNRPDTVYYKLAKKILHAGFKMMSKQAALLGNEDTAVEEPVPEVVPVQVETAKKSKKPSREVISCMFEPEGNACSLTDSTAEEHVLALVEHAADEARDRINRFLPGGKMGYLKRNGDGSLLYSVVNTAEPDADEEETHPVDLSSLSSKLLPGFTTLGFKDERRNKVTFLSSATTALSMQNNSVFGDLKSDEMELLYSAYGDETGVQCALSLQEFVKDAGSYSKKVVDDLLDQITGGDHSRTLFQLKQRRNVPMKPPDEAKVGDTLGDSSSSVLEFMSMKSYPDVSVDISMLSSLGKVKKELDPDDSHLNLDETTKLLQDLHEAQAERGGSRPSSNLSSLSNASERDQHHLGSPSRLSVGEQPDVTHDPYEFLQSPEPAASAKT

How the values were obtained:
Peregrin (Homo sapiens) = target: T1, Peregrin (Homo sapiens) (UniProt P55201)
T1 sequence (whole entry): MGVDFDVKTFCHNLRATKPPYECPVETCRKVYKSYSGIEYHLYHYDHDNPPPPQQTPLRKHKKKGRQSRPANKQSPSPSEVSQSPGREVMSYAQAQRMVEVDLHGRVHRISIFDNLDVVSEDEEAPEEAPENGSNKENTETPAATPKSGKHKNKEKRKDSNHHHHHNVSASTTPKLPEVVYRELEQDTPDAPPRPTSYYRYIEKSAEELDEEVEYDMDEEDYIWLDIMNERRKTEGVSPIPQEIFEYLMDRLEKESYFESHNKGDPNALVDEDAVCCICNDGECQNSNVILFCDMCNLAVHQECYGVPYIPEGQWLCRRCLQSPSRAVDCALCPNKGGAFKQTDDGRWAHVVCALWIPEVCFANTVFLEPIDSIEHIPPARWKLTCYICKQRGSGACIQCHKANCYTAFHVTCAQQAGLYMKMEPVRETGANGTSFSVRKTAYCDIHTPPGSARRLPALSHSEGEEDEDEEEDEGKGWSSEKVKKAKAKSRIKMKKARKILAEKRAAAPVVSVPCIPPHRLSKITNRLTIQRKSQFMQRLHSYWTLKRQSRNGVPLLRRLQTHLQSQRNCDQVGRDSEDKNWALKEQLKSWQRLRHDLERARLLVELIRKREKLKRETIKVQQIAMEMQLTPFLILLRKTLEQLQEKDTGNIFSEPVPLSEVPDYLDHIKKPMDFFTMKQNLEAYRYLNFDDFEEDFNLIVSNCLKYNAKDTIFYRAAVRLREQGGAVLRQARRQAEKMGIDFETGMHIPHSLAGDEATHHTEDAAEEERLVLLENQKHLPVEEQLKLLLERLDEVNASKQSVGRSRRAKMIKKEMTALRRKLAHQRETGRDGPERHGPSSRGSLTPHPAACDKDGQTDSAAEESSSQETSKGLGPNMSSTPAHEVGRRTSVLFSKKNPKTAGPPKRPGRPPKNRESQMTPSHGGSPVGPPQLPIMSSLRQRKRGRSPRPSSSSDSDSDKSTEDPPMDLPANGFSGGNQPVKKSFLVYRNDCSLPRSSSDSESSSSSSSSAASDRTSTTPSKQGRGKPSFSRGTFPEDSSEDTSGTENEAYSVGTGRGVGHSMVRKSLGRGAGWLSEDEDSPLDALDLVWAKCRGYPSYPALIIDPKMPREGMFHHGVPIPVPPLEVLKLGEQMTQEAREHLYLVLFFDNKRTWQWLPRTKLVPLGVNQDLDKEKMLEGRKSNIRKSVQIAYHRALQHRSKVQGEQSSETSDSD

[1] = target: Bromodomain-containing protein 9 (Homo sapiens, UniProt Q9H8M2); settings: 10 uM
[2] = target: T2, Bromodomain and PHD finger-containing protein 3 (Homo sapiens, UniProt Q9ULD4); assay: Inhibition of His-tagged BRPF3 (unknown origin) using [H-YSGRGKacGGKacGLGKacGGAKacRHRK(Biotin)-OH peptide as substrate by alphaScreen assay
T2 sequence (Q9ULD4 whole entry): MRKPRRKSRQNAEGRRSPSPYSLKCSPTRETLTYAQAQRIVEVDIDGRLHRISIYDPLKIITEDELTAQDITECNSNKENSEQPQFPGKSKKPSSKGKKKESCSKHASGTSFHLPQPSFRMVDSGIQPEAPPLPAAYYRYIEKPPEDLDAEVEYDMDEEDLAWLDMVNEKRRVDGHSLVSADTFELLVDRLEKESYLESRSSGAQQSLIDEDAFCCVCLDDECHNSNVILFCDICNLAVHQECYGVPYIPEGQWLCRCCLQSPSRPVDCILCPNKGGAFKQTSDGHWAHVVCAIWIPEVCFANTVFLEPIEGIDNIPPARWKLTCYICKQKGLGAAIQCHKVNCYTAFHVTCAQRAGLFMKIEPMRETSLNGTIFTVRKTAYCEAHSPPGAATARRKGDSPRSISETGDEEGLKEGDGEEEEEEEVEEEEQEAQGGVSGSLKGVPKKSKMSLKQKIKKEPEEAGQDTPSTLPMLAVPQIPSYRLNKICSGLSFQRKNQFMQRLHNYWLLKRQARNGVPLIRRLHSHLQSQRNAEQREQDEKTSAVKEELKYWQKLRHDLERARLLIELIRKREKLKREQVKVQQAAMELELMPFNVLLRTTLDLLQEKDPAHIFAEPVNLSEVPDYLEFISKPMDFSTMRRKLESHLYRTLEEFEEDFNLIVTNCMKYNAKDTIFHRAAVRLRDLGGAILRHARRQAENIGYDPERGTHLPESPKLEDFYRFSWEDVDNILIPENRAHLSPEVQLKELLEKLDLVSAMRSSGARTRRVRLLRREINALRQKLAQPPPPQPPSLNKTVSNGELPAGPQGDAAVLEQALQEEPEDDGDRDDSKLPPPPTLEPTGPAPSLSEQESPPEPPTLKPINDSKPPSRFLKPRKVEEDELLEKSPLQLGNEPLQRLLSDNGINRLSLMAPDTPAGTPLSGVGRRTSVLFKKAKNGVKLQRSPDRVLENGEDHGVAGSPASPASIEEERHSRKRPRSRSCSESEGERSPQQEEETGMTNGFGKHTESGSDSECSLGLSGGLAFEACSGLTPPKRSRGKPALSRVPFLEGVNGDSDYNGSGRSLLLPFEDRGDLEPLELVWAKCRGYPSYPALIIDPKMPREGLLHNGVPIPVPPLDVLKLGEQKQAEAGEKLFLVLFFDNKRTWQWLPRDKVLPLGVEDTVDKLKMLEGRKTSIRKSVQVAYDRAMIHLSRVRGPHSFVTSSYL

[3] = target: T2, Bromodomain and PHD finger-containing protein 3; assay: Inhibition of human BRPF3 (588 to 701 residues) expressed in Escherichia coli BL21 after 1 hr by BROMOscan assay
[4] = target: T3, Bromodomain-containing protein 7 (Homo sapiens, UniProt Q9NPI1); assay: Inhibition of human BRD7 (125 to 254 residues) expressed in Escherichia coli BL21 after 1 hr by BROMOscan assay
T3 sequence (Q9NPI1 whole entry): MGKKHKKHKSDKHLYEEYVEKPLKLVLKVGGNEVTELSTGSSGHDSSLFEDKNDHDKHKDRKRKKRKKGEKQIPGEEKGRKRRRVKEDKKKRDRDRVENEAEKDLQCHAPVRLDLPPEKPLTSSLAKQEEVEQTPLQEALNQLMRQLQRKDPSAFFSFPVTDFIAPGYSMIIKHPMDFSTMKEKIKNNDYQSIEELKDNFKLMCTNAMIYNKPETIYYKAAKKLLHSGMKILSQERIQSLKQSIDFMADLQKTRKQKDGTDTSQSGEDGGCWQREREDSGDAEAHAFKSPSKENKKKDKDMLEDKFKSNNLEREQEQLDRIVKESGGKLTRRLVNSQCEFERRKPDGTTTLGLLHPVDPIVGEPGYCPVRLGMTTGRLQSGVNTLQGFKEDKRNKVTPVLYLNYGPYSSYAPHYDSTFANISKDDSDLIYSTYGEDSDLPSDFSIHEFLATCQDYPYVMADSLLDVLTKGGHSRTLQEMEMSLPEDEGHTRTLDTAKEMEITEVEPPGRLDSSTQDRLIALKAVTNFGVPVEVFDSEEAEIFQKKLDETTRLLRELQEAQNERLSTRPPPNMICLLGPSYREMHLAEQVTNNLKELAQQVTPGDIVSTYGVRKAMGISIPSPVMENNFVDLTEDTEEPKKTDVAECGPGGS

Row | Structure (SMILES) | ΔTm (Peregrin (Homo sapiens)) [°C] | other results
1 | COc1cc2c(cc1NS(=O)(=O)c1ccc(C#N)cc1C)cc(C)c(=O)n2C | 9.9 | 
2 | COc1cc2c(cc1NS(=O)(=O)c1ccccc1OC)cc(C)c(=O)n2C | 11 | 
3 | Cn1c(=O)ccc2c(F)c(NS(=O)(=O)c3ccc(C#N)cc3)ccc21 | 2.7 | 
4 | Cn1c(=O)ccc2cc(S(=O)(=O)Nc3ccccc3C#N)ccc21 | 2.6 | ΔTm [1]: 3.9 °C
5 | CCOc1cc(C#N)ccc1S(=O)(=O)Nc1cc2cc(C)c(=O)n(C)c2cc1OC | 9.5 | 
6 | Cc1cc2cc(NS(=O)(=O)c3ccc(C#N)cc3)cc(F)c2n(C)c1=O | 7.1 | 
7 | COc1cc(C#N)ccc1S(=O)(=O)Nc1ccc2c(c1)cc(C)c(=O)n2C |  | IC50 [2]: 1010 nM; IC50 [3]: 140 nM; IC50 [4]: 140 nM
8 | Cn1c(=O)ccc2cc(NS(=O)(=O)c3ccc(C#N)cc3)c(F)cc21 | 3.8 | 
9 | Cn1c(=O)ccc2cc(S(=O)(=O)Nc3cccc(C#N)c3)ccc21 | 2.3 | 
